Patent US6451801B1, “Compounds and methods for treatment of asthma, allergy and inflammatory disorders” (UCB, S.A., priority 1999, dated 2002)

The chains behind the UniProt entries cited, without tags or fusion partners.
UniProt P35367, whole entry: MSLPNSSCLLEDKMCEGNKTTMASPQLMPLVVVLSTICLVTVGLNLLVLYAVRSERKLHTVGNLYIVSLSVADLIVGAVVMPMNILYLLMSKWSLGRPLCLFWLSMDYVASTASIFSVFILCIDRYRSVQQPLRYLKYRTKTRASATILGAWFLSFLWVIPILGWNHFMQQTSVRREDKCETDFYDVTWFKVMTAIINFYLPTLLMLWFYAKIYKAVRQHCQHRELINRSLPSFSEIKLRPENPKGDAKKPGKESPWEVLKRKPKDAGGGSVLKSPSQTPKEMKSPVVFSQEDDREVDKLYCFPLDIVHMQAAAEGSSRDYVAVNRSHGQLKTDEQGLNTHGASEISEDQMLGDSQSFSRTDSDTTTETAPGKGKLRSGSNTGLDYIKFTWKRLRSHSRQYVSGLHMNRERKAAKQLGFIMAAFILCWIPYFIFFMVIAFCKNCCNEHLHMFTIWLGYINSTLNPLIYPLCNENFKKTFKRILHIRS

Biological target: T1, human cloned H1 receptor (Homo sapiens, UniProt P35367)
T1 construct: expressed in transfected cells; host or cells: CHO-K1
Test: CHO-K1 H1R binding assay
Conditions: 3H-pyrilamine 2 nM, CHO-K1 membranes, 3 hours at 37° C.; read-out: CHOH1 K1
Protocol: This assay is commonly used to measure the ability of a compound to act as a histamine H1 receptor binding ligand. As this assay employs human cloned H1 receptors it can provide a good approximation of what can be expected when a compound is administered to humans.
Details of the assay procedure are as follows. CHO-K1 cells expressing the human cloned H1 receptor are grown to confluence in tissue culture dishes. Cells are harvested using D-PBS buffer (JRH Biosciences), kept at 4° C., centrifuging to pellet cells (4° C., 500 g, 10 min). The final cell pellet is homogenized and resuspended using Tris/sucrose buffer (20 mM Tris, 250 mM sucrose, pH 7.4 at 4° C.). Aliquots of the membrane preparation are stored at −70° C.
On the day of assay, the membrane preparation is thawed and centrifuged (TLA100.3 rotor, 4° C., 15 min, 23,000 rpm). The pellet is resuspended in Tris/sucrose buffer initially and then diluted further as necessary using assay buffer A (50 mM Na/KPO4, 2 mM MgCl2, 0.5% (w/v) BSA, pH 7.5).
For the binding assay, the membrane preparation, test compound and ^3H-pyrilamine (2 nM final) in buffer A with 1% (v/v) DMSO final are incubated in a 96-well polypropylene plate for 3 hours at 37° C. Non-specific binding is determined in the presence of 10 μM pyrilamine. A 96-well harvester (Packard) is used to harvest the 96-well plate onto a GF/B filter plate pre-treated with 0.1% (v/v) PEI. The plate is counted in a Packard Topcounter after adding Microscint 20 (Packard) scintillation fluid. The Ki for each compound at the histamine H1 receptor is then calculated from these counts.

Ki [nM] | SMILES
6 | NC(=O)N(O)CCC#Cc1ccc(OCCCN2CCN([C@H](c3ccccc3)c3ccc(Cl)cc3)CC2)cc1 [Compound 52, N-{4-[4-(3-{4-[(1R)(4-chlorophenyl)phenyl-methyl]piperazinyt}propoxy)phenyl]but-3-ynyl}amino-N-hydroxyamide]
7 | NC(=O)N(O)CCC#Cc1ccc(OCCN2CCC(=C3c4ccc(Cl)cc4CCc4cccnc43)CC2)cc1 [Compound 32]
380 | NC(=O)N(O)CCC#Cc1ccc(OCCN2CCN([C@H](c3ccccc3)c3ccc(Cl)cc3)CC2)cc1 [Compound 12, N-{4-[4-(2-{4-[(1R) (4-chlorophenyl)phenylmethyl]piperazinyl}ethoxy)phenyl]but-3-ynyl} amino-N-hydroxyamide]

SMILES | Ki [nM]
NC(=O)N(O)CCC#Cc1ccc(OCCCCN2CCN(C(c3ccc(F)cc3)c3ccc(F)cc3)CC2)cc1 [Compound 80, amino-N-{4-[4-(4-{4-[bis(4-fluorophenyl)methyl]piperazinyl}butoxy)phenyl]but-3-ynyl}-N-hydroxyamide] | 27
